The values that follow come from patent publication US20080138836A1, “KINASE AND UBIQUINATION ASSAYS” (INVITROGEN CORPORATION, priority 2006, published 2008).

The target of this assay is T1, Epidermal Growth Factor Receptor (EGFR) Tyrosine Kinase (Homo sapiens, UniProt P00533).
T1 construct: purchased PanVera, Madison Wis; P2628
Nature of the assay: EGFR kinase multiplex FP/TR-RET assay (LOPAC screen and follow-up). The format is biochemical. The settings on record: 10 μM library compound.

`COc1cc2ncnc(Nc3cccc(Cl)c3)c2cc1OC` [Tyrophostin AG 1478]: the “inhibition in library screen” value is “strong inhibition”.
